Values quoted from earlier work, collected in patent US20210207079A1, “PROCESS FOR PRODUCING CELL CULTURE MEDIA” (Merck Patent GmbH, priority 2015, published 2021).

Conditions: H2O at 25° C.; cited from earlier work

In the case of `O.O=C([O-])CC(O)(CC(=O)[O-])C(=O)[O-].[Fe+3]` [Iron(III)Citrate Hydrate, Fe(III) citrate hydrate], the “Dissolution (speed)” value is given as “very slow”.
